According to US12815635B2, “Aromatic sulphonamides derivatives that inhibits PDI A1, their synthesis and use” (dated 2026):

Tests used:
[1] = system: Lewis Lung Carcinoma (LLC); experiment: Murine model of Lewis Lung Carcinoma (LLC), tumor volume; details: for anti-cancer activity in vivo: LLC model
[2] = Rat model of arterial thrombosis (electrical stimulation of carotid artery)
[3] = system: HT-29 cells; experiment: Long-term colony formation (clonogenic) assay, HT-29; details: FIGS. 1A and 1B
[4] = system: CaCo-2 cells; experiment: Cell cycle analysis, CaCo-2; details: FIG. 1C
[5] = system: HT-29 cells; experiment: Cell death analysis, HT-29; details: FIG. 1D
[6] = system: human cancer cell lines; experiment: Antiproliferative assay in normal condition, all cell lines (summary of Tables 3 and 4); details: 72 h
[7] = system: HT-29 cells; experiment: Caspase-3/7 activity assay, HT-29; details: 24 and 48 h of incubation, FIG. 1E/1F
[8] = system: CaCo-2 cells; experiment: Caspase-3/7 activity assay, Caco-2; details: 48 h treatment, FIG. 1E/1F
[9] = system: HT-29 cells; experiment: Cell cycle analysis, HT-29; details: FIG. 1C
[10] = system: MCF-7 cells; experiment: Antiproliferative MTT assay, 72 h, with or without estradiol, MCF-7; details: after addition of estradiol
[11] = system: MDA-MB-231 cells; experiment: Antiproliferative MTT assay, 72 h, with or without estradiol, MDA-MB-231; details: simultaneous incubation with estradiol
[12] = system: HT-29 cells; experiment: Antiproliferative sulforhodamine B assay, 72 h, HT-29; details: normal (21% of oxygen)

## COC(=O)C1CN1S(=O)(=O)c1ccc2cc(C)ccc2c1 (stereo not shown)
[1]
  anti-cancer activity in vivo: anti-cancer effects were also shown

## C[C@@H]1O[C@@H](OC[C@H]2O[C@@H](Oc3c(-c4ccc(O)c(O)c4)oc4cc(O)cc(O)c4c3=O)[C@H](O)[C@@H](O)[C@@H]2O)[C@H](O)[C@H](O)[C@H]1O
[2]
  anti-thrombotic effect / inhibition of thrombus formation in vivo: inhibited thrombus formation in vivo

## CCCCc1ccc(S(=O)(=O)N2CC2C(=O)OC)cc1 (stereo not shown)
[2]
  anti-thrombotic effect / inhibition of thrombus formation in vivo: anti-thrombotic effects
[2]; FIG. 6
  dose dependence of effect on thrombus formation in vivo: dose-dependent effects
[2]; FIG. 6, dose as low as
  dose at which effect on thrombus formation in vivo was significant and pronounced: ≤ 0.03 µmol/kg
[1]; C-3257 75 mg/kg vs control
  TTEST, day 10: 0.36
  TTEST, day 12: 0.25
  TTEST, day 14: 0.13
  TTEST, day 16: 0.04
  TTEST, day 17: 0.03
[1]
  anti-cancer activity in vivo: possess anti-cancer activity in vivo

## COC(=O)C1CN1S(=O)(=O)c1ccccc1 (stereo not shown)
[3]
  inhibition of long-term colonies formation, HT-29 vs CaCo-2: much potent towards HT-29 than CaCo-2 cell line
[4]
  percentage of CaCo-2 cells in S cell cycle phase: increased the percentage of CaCo-2 cells in S cell cycle phase
[5]
  percentage of death HT-29 cells: increased significantly the percentage of death HT-29 cells
[6]
  antiproliferative activity compared with reference LOC14: comparable to reference LOC14
  antiproliferative activity towards all cell lines: the most active towards all cell lines
[7]
  caspase 3/7 activity, HT-29: significantly increase caspase 3/7 activity
[8]
  caspase 3/7 activity, Caco-2: significantly increase caspase 3/7 activity
[9]
  HT-29 cells in G0/G1: decreased HT-29 cells in G0/G1
  HT-29 cells in G2/M phase: increased in G2/M phase

## COC(=O)C1CN1S(=O)(=O)c1cccc2c(N(C)C)cccc12 (stereo not shown)
[10]
  change of sensitivity with estradiol, MCF-7: slight decrease in sensitivity after addition of estradiol

## CCCCCCc1ccc(S(=O)(=O)N2CC2C(N)=O)cc1 (stereo not shown)
[11]
  change of antiproliferative activity with estradiol, MDA-MB-231: slight decrease of antiproliferative activity

## O=c1c(O[C@@H]2O[C@H](CO)[C@@H](O)[C@H](O)[C@H]2O)c(-c2ccc(O)c(O)c2)oc2cc(O)cc(O)c12
[2]
  anti-thrombotic effect / inhibition of thrombus formation in vivo: less effective

## Cisplatin
[12]
  IC50 HT-29 normal: 2.82 ± 0.6 µg/mL

## CCCCCc1ccc(S(=O)(=O)N2CC2C(=O)OC)cc1 (stereo not shown)
[1]
  anti-cancer activity in vivo: anti-cancer effects were also shown

## COC(=O)C1CN1S(=O)(=O)c1ccc(C)cc1 (stereo not shown)
[6]
  antiproliferative activity compared with reference LOC14: comparable to reference LOC14
  antiproliferative activity towards all cell lines: the most active towards all cell lines
[1]; C-3161 50 mg/kg vs control
  TTEST, day 10: 0.78
  TTEST, day 12: 0.06
  TTEST, day 14: 0.03
  TTEST, day 16: 0.02
  TTEST, day 17: 0.01
[1]
  anti-cancer activity in vivo: possess anti-cancer activity in vivo

## CCCCCCc1ccc(S(=O)(=O)N2CC2C(=O)OC)cc1 (stereo not shown)
[11]
  change of antiproliferative activity with estradiol, MDA-MB-231: slight decrease of antiproliferative activity
